# Literature values in paper PMC11372839, “Unraveling the Potential of Vitamin B3-Derived Salts with a Salicylate Anion as Dermal Active Agents for Acne Treatment” (Molecular Pharmaceutics, 2024).
# Set-up: method as in doi:10.1080/10826076.2015.1057642, PMID 22469554, PMID 31982561
# Conditions: frequently used topical acne agents; cited from earlier work
structure (smiles),measurement,value
CCC[C@@H]1C[C@@H](C(=O)N[C@@H]([C@H]2O[C@H](SC)[C@H](O)[C@@H](O)[C@H]2O)[C@H](C)Cl)N(C)C1 [clindamycin],log KOW,1.60
